Assay results reported in ChEMBL document CHEMBL1212781, “VIM-19, a metallo-beta-lactamase with increased carbapenemase activity from Escherichia coli and Klebsiella pneumoniae” (2010).

What was measured:
[1] = tested on: C[C@@H](O)[C@H]1C(=O)N2C(C(=O)O)=C(SCCNC=N)C[C@H]12; assay: (§1) Ratio of Kcat to Km for beta-lactamase VIM-1 expressed in Escherichia coli TOP10 by spectrophotometry
[2] = tested on: CO/N=C(\C(=O)N[C@@H]1C(=O)N2C(C(=O)[O-])=C(C[N+]3(C)CCCC3)CS[C@H]12)c1csc(N)n1; assay: as §1
[3] = tested on: C[C@H]1[C@H](NC(=O)/C(=N\OC(C)(C)C(=O)O)c2csc(N)n2)C(=O)N1S(=O)(=O)O; assay: as §1
[4] = tested on: C[C@@H](O)[C@H]1C(=O)N2C(C(=O)O)=C(SCCNC=N)C[C@H]12; assay: (§2) Hydrolytic activity of beta-lactamase VIM-1 expressed in Escherichia coli TOP10 by spectrophotometry
[5] = tested on: CO/N=C(\C(=O)N[C@@H]1C(=O)N2C(C(=O)[O-])=C(C[N+]3(C)CCCC3)CS[C@H]12)c1csc(N)n1; assay: as §2
[6] = tested on: C[C@H]1[C@H](NC(=O)/C(=N\OC(C)(C)C(=O)O)c2csc(N)n2)C(=O)N1S(=O)(=O)O; assay: as §2
[7] = tested on: C[C@@H](O)[C@H]1C(=O)N2C(C(=O)O)=C(S[C@@H]3CN[C@H](C(=O)N(C)C)C3)[C@H](C)[C@H]12; assay: as §2
[8] = tested on: C[C@@H](O)[C@H]1C(=O)N2C(C(=O)O)=C(SCCNC=N)C[C@H]12; assay: (§3) Ratio of Kcat to Km for beta-lactamase VIM-19 expressed in Escherichia coli TOP10 by spectrophotometry
Procedure, shortened: (§4)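 Enzyme came from E. coli TOP10 (pVIM-19) grown overnight at 37°C in Trypticase soy broth with amoxicillin (100 μg/ml) and kanamycin (30 μg/ml). The sonicated, cleared extract was purified on Q-Sepharose with a 0–1 M NaCl gradient, in Bis-Tris then cacodylate pH 6.5 buffers.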

[9] = tested on: CO/N=C(\C(=O)N[C@@H]1C(=O)N2C(C(=O)[O-])=C(C[N+]3(C)CCCC3)CS[C@H]12)c1csc(N)n1; assay: as §3; procedure, shortened: as §4
[10] = tested on: CCN1CCN(C(=O)N[C@@H](C(=O)N[C@@H]2C(=O)N3[C@@H]2SC(C)(C)[C@@H]3C(=O)O)c2ccccc2)C(=O)C1=O; assay: (§5) Hydrolytic activity of beta-lactamase VIM-19 expressed in Escherichia coli TOP10 by spectrophotometry; procedure, shortened: as §4
[11] = tested on: C[C@@H](O)[C@H]1C(=O)N2C(C(=O)O)=C(SCCNC=N)C[C@H]12; assay: as §5; procedure, shortened: as §4
[12] = tested on: CO/N=C(\C(=O)N[C@@H]1C(=O)N2C(C(=O)[O-])=C(C[N+]3(C)CCCC3)CS[C@H]12)c1csc(N)n1; assay: as §5; procedure, shortened: as §4
[13] = tested on: C[C@@H](O)[C@H]1C(=O)N2C(C(=O)O)=C(S[C@@H]3CN[C@H](C(=O)N(C)C)C3)[C@H](C)[C@H]12; assay: as §5; procedure, shortened: as §4

With “BlaVIM-1 (Escherichia coli) (from UniProt Q8GDC1)” the kcat/Km [1] was 1e+06 M⁻¹ s⁻¹, the kcat/Km [2] was 4e+06 M⁻¹ s⁻¹ and the kcat/Km [3] was < 100 M⁻¹ s⁻¹. The Km [4] was 1.5 µM, the Km [5] was 145 µM and the Km [6] was > 1000 µM. For the same substance, the kcat [6] was < 0.01 s⁻¹ and the kcat [7] was 15 s⁻¹.
In the case of “Metallo-beta-lactamase VIM-19 (Escherichia coli) (from UniProt D2D9J0)”, the kcat/Km [8] is reported as 6e+06 M⁻¹ s⁻¹, the kcat/Km [9] is reported as 500000 M⁻¹ s⁻¹ and the Km [10] is reported as 250 µM. It also gave a Km [11] of 40 µM, a kcat [11] of 250 s⁻¹ and a Km [12] of 350 µM. The kcat [12] was 100 s⁻¹ and the kcat [13] was 25 s⁻¹.
